Reference: US10130617B2, “Chemical compounds” (AstraZeneca AB, priority 2013, dated 2018)

Chains of the proteins cited; added tags and fusions are not shown. Residues count along the entry.
UniProt P03372, whole entry: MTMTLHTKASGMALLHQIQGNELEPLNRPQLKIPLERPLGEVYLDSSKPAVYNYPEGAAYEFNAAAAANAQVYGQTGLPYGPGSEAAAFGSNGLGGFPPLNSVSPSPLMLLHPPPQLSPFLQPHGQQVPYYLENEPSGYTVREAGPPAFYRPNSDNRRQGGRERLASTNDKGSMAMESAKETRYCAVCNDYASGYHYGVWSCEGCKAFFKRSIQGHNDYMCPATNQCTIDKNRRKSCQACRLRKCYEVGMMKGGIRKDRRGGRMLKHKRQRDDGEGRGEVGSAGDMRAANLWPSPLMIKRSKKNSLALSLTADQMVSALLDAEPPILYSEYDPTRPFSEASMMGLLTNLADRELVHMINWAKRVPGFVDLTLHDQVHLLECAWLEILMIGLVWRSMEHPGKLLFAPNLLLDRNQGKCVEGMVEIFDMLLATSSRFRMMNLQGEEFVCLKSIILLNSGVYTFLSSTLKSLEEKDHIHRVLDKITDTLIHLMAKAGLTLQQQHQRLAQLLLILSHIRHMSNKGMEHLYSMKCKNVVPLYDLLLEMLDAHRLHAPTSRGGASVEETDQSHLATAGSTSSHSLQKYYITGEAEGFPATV
UniProt P03372, 311-547: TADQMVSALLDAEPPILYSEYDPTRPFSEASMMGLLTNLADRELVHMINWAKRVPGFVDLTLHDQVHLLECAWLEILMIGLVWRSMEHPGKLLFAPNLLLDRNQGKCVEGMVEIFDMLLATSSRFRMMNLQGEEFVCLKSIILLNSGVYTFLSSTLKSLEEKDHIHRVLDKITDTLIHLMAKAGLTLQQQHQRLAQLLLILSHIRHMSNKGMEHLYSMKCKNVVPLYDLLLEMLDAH

What was measured:
[1] = target: Estrogen Receptor (ERα receptor level) in MCF-7 human ductal carcinoma breast cell line (Homo sapiens (Human), UniProt P03372); test: MCF-7 ER Down Regulation Assay (immuno-fluorescence); format: cell-based
Procedure: MCF-7 ER Down Regulation Assay
The ability of compounds to down-regulate Estrogen Receptor (ER) numbers was assessed in a cell based immuno-fluorescence assay using the MCF-7 human ductal carcinoma breast cell line. […] Following cell seeding, plates were incubated overnight at 37° C., 5% CO2 (Liconic carousel incubator). […] The Echo uses acoustic technology to perform direct microplate-to-microplate transfers of DMSO compound solutions to assay plates. The system can be programmed to transfer volumes as low as 2.5 nL in multiple increments between microplates and in so doing generates a serial dilution of compound in the assay plate which is then back-filled to normalise the DMSO concentration across the dilution range. Compounds were dispensed onto the cell plates with a compound source plate prepared as above producing a 12 pt duplicate 3 μM to 3 pM dose range with 3 fold dilutions and one final 10 fold dilution using the Integrated Echo 2 workcell. […] The fixing method described above was carried out on the Integrated Echo 2 workcell. Immunostaining was performed using an automated AutoElisa workcell. […] The plates were incubated overnight at 4° C. […] The mean total intensity was normalized for cell number giving the total intensity per cell. The data was exported into a suitable software package (such as Origin) to perform curve fitting analysis.

[2] = target: recombinant human Estrogen Receptor alpha ligand binding domain (ER alpha-LBD (GST)) (Homo sapiens (Human), UniProt P03372); test: ERα Binding Assay (LanthaScreen TR-FRET competition)

With `C[C@@H]1Cc2c([nH]c3ccccc23)[C@@H](c2c(F)cc(/C=C/C(=O)O)cc2F)N1CC(C)(C)F` [Example 1, (E)-3-(3,5-Difluoro-4-((1R,3R)-2-(2-fluoro-2-methylpropyl)-3-methyl-2,3,4,9-tetrahydro-1H-pyrido[3,4-b]indol-1-yl)phenyl)acrylic acid] as the compound, how does the DC50 ([1]; read-out: ER down regulation IC50 value; MCF-7 cells; single experiment or average of repeats) read?
The DC50 was 0.14 nM.

And the IC50 [2]?
Its IC50 is less than 0.64 nM.

For `C[C@@H]1Cc2c([nH]c3ccccc23)[C@@H](c2ccc(/C=C/C(=O)O)cc2)N1CC(C)(C)F` [Example 2, (E)-3-(4-((1R,3R)-2-(2-Fluoro-2-methylpropyl)-3-methyl-2,3,4,9-tetrahydro-1H-pyrido[3,4-b]indol-1-yl)phenyl)acrylic acid], which IC50 ([1]; MCF-7 cells; single experiment or average of repeats) is on record?
The IC50 was 0.85 nM.

What about the IC50 ([2]; read-out: ER binding IC50 value) of the same compound?
Its IC50 is 1 nM.

How did the DC50 ([1]; MCF-7 cells; single experiment or average of repeats; read-out: ER down regulation IC50 value) turn out when `C[C@H](CF)CN1[C@H](c2ccc(/C=C/C(=O)O)cc2)c2[nH]c3ccccc3c2C[C@H]1C` [Example 4, (E)-3-(4-((1R,3R)-2-((S)-3-fluoro-2-methylpropyl)-3-methyl-2,3,4,9-tetrahydro-1H-pyrido[3,4-b]indol-1-yl)phenyl)acrylic acid] was run?
Its DC50 is 0.99 nM.

Where two headings read alike, the source gives them in different places.
